We go through one molecule from patent US5574070A, “Substituted guanidines having high binding to the sigma receptor and the use thereof” (priority 1993, dated 1996).

Structures are written as SMILES.

This test concerns sigma receptor. Put plainly: [3H]DTG displacement radioligand binding assay, guinea pig brain membranes.

What is called IC50 is the concentration that inhibits the measured activity by half. `CN(C(=O)Cc1ccc(Cl)c(Cl)c1)[C@@H]1CCCC[C@H]1N1CCCC1` (relative stereo): the “affinity for / displacement at the [3H]DTG binding site” value is “moderate affinity”. For the same molecule, the IC50 (read-out: IC50 vs. [3H]DTG, Table III, ± SEM, average from 2-4 separate experiments in triplicate) was 1.35 µM.
